Test results taken from patent US9433687B2, “Anti-Notch3 antibodies and antibody-drug conjugates” (Pfizer Inc., priority 2012, dated 2016).

Sequences of proteins named here, by UniProt entry; tags and fusion partners are left off. Residues count along the entry.
UniProt Q9UM47, 40-2321: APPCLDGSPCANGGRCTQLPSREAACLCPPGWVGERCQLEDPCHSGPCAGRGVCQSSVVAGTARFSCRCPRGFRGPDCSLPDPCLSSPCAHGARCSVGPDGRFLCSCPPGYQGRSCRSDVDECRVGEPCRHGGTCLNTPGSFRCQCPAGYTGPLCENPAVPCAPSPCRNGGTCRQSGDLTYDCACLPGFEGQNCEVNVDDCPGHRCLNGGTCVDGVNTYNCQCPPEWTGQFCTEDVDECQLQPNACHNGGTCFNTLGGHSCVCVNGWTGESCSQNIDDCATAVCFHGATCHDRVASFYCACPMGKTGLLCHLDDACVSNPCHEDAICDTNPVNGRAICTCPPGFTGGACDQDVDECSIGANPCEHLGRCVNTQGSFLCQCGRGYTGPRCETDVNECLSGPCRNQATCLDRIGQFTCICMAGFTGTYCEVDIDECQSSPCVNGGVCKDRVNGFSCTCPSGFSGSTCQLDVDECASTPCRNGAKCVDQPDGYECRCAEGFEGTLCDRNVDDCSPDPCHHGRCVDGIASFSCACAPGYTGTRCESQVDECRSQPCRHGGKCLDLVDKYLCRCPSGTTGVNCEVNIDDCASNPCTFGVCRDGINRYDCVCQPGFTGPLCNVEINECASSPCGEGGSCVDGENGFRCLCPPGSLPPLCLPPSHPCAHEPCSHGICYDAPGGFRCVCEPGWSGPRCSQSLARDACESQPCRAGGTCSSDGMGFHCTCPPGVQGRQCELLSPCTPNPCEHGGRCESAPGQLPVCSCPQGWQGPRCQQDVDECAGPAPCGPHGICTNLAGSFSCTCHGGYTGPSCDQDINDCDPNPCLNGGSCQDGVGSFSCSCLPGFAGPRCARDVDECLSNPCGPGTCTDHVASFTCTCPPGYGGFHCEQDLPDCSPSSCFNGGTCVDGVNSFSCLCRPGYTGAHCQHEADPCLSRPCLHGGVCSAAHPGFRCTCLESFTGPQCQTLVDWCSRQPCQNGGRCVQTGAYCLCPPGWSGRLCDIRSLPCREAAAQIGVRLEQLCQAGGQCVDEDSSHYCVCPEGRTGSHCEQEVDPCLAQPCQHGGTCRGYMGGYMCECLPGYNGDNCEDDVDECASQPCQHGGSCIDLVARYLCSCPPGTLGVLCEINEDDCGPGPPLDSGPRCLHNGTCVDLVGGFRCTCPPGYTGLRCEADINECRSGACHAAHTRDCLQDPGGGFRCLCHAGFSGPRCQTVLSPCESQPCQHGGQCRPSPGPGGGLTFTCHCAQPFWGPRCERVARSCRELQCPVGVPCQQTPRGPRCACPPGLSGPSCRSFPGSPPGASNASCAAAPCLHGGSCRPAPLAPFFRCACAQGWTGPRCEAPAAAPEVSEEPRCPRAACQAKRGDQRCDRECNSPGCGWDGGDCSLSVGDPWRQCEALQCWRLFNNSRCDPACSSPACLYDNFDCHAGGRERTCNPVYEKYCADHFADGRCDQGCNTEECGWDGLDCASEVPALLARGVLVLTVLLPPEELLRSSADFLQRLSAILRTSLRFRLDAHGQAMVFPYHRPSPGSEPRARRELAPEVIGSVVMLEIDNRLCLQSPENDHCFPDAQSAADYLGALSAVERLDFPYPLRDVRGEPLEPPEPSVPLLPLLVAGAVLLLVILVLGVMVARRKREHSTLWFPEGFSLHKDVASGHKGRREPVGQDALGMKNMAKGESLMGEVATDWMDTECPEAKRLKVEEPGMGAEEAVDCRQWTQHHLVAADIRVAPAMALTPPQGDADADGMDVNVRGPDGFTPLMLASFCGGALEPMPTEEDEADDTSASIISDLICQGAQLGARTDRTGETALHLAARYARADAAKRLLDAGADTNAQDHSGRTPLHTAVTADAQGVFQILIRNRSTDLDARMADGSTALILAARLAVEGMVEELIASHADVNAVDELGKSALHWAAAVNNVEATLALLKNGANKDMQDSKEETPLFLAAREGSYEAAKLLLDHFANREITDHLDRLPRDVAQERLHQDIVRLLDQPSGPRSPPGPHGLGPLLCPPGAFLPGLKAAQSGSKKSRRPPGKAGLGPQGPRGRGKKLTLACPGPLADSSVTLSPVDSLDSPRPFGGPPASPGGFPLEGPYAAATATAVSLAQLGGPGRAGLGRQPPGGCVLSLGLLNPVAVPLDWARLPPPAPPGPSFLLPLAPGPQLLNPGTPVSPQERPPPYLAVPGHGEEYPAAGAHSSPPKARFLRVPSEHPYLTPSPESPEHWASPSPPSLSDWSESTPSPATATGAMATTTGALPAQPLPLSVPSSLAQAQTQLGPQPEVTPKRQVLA

Columns and labels:
[1] = test system: MDA-MB-468 breast xenografts; assay: MDA-MB-468 breast xenograft model; assay type: in vivo, mouse
Procedure: Similar in vivo experiments were performed with the MDA-MB-468 breast cancer cell line as described above. MDA-MB-468 cells are classified as a triple-negative breast cancer (TNBC) basal-like subtype since they lack expression of the estrogen receptor, progesterone receptor and human epidermal growth factor receptor 2 (HER2) (Lehmann, B D, et al, J Clin Invest. 2011; 121(7):2750-2767). To generate xenografts, female SCID Hairless Outbred (SHO) mice were orthotopically implanted with 10×10^6 MDA-MB-468 cells containing 50% Matrigel (BD Biosciences) in the mammary fat pad. […] FIGS. 13A and 13B show graphs of the data from Table 23 of anti-Notch3 ADCs with vc0101 linker-payloads compared to control huNeg-8.8 ADCs and PBS vehicle. FIGS. 14A and 14B show graphs of the data from Table 24 of the anti-Notch3 ADCs with vc6780 linker-payloads compared to control huNeg-8.8 ADC and PBS vehicle.
The MDA-MB-468 breast cancer model was also dosed intravenously Q4d×4 with PBS vehicle, rat-human chimeric anti-Notch3 ADCs and control huNeg-8.8 ADCs, at a dose of 5 mg/kg as provided in FIGS. 16B and 16C.

[2] = target: T1, HCC2429 (Homo sapiens, UniProt Q9UM47); assay: Cytotoxicity (MTS) after control or Notch3 siRNA, HCC2429; assay type: cell-based; conditions: 96 hours, LP = lacked potency
T1 construct: endogenous Notch3 expressing cell lines, HCC2429 and MDA-MB-468; endogenous in cells; host or cells: HCC2429
Procedure: (§1) Notch3 knockdown with siRNAs was used to confirm that the in vitro cytotoxicity of anti-Notch3 ADCs was dependent on the expression of the Notch3 protein. siRNA transfections were generated using ON-TARGET plus SMART pool human Notch3 (L-011093-00), ON-TARGET plus Control Non-Targeting pool (D-001810-10) (Thermo Scientific Dharmacon) and Lipofectamine RNAiMAX Reagent (Invitrogen). Two to 2.5×10^6 cells of HCC2429, OVCAR3 and MDA-MB-468/hNotch3 cells were plated in 10 cm dishes in growth medium without antibiotics the day before transfection. The next day fresh medium without antibiotics was added. The siRNAs and the Lipofectamine RNAiMAX were diluted in OPTI-MEM media and used as per the manufacturer's specifications. Each of the cell lines was transfected with control and Notch3 siRNAs. The cells were incubated with the transfection mixture for 24 hours in a humidified, 37° C., 5% CO2 incubator. After 24 hours, cells were trypsinized and plated for assessment using MTS cellular viability indicator (Promega, Madison, Wis.).
Depending on the cell line, cells were then seeded at a density of 2,500 to 5,000 cells per well 24 hours before treatment. Cells were treated with 3-fold serially diluted humanized anti-Notch3 ADCs in triplicates at 10 concentrations (range 0-30 μg Ab/ml). […] For experiments with 2 individual repeats, average IC50 values were calculated along with standard error of the mean (S.E.M.). Western blot analysis on extracts prepared from control and Notch3 siRNA-treated cells was performed to confirm that Notch3 knockdown occurred for up to 144 hours (data not shown). Cell lines that expressed Notch3 (herein termed control siRNA) or had reduced Notch3 expression after siRNA knockdown (herein termed Notch3 siRNA) were cultured with increasing concentrations of humanized anti Notch3 ADCs. […] After four days, viability of each culture was assessed. IC50 values were calculated by logistic non-linear regression, model #203 with XL fit v4.2 (IDBS, Guildford, Surry, UK) and presented as ng Ab/mL. […]

[3] = target: T2, OVCAR3 (Homo sapiens, UniProt Q9UM47); assay: Cytotoxicity (MTS) after control or Notch3 siRNA, OVCAR3; assay type: cell-based; conditions: 96 hours
T2 construct: Notch3 endogenously expressing cells MDA-MB-468, HCC2429 and OVCAR3; endogenous in cells; host or cells: OVCAR3
Procedure: as §1
Depending on the cell line, cells were then seeded at a density of 2,500 to 5,000 cells per well 24 hours before treatment. Cells were treated with 3-fold serially diluted humanized anti-Notch3 ADCs in triplicates at 10 concentrations (range 0-30 μg Ab/ml). […] For experiments with 2 individual repeats, average IC50 values were calculated along with standard error of the mean (S.E.M.). Western blot analysis on extracts prepared from control and Notch3 siRNA-treated cells was performed to confirm that Notch3 knockdown occurred for up to 144 hours (data not shown). Cell lines that expressed Notch3 (herein termed control siRNA) or had reduced Notch3 expression after siRNA knockdown (herein termed Notch3 siRNA) were cultured with increasing concentrations of humanized anti Notch3 ADCs. As a specificity control for the anti-Notch3 ADCs, non-targeted control-ADCs (huNeg8.8-ADCs) were also tested on the same cell lines. After four days, viability of each culture was assessed. IC50 values were calculated by logistic non-linear regression, model #203 with XL fit v4.2 (IDBS, Guildford, Surry, UK) and presented as ng Ab/mL. The drug antibody ratio (DAR) is also provided.

B1: hu75-vc0101: hu75 conjugated to vc0101 linker-payload (conjugate)
heavy: EVQLVESGGGLVQPGGSLRLSCAASGYAFTDYWMTWVRQAPGKGLEWVAEISPNSGGTNFNEKFKGRFTISVDNAKNSLYLQMNSLRAEDTAVYYCARGEIRYNWFAYWGQGTLVTVSSASTKGPSVFPLAPSSKSTSGGTAALGCLVKDYFPEPVTVSWNSGALTSGVHTFPAVLQSSGLYSLSSVVTVPSSSLGTQTYICNVNHKPSNTKVDKKV[letters of human IgG1 Fc omitted]
light: DIQMTQSPSSLSASVGDRVTITCKASQNVGNNIAWYQQKPGKAPKLLIYYASNRYTGVPSRFSGSGYGTDFTLTISSLQPEDFATYYCQRLYNSPFTFGGGTKVEIKRTVAAPSVFIFPPSDEQLKSGTASVVCLLNNFYPREAKVQWKVDNALQSGNSQESVTEQDSKDSTYSLSSTLTLSKADYEKHKVYACEVTHQGLSSPVTKSFNRGEC
tumor volume (mm^3 ± SEM) ([1]; Table 23, 0.3 mg/kg i.v. Q4d×4, DAY 0): 348 mm^3
tumor volume (mm^3 ± SEM) ([1]; Table 23, 0.3 mg/kg i.v. Q4d×4, DAY 4): 439 mm^3
tumor volume (mm^3 ± SEM) ([1]; Table 23, 0.3 mg/kg i.v. Q4d×4, DAY 7): 435 mm^3
tumor volume (mm^3 ± SEM) ([1]; Table 23, 0.3 mg/kg i.v. Q4d×4, DAY 11): 504 mm^3
tumor volume (mm^3 ± SEM) ([1]; Table 23, 0.3 mg/kg i.v. Q4d×4, DAY 14): 507 mm^3
tumor volume (mm^3 ± SEM) ([1]; Table 23, 0.3 mg/kg i.v. Q4d×4, DAY 18): 587 mm^3
tumor volume (mm^3 ± SEM) ([1]; Table 23, 0.3 mg/kg i.v. Q4d×4, DAY 21): 590 mm^3
tumor volume (mm^3 ± SEM) ([1]; Table 23, 0.3 mg/kg i.v. Q4d×4, DAY 26): 652 mm^3
tumor volume (mm^3 ± SEM) ([1]; Table 23, 0.3 mg/kg i.v. Q4d×4, DAY 29): 675 mm^3
tumor volume (mm^3 ± SEM) ([1]; Table 23, 0.3 mg/kg i.v. Q4d×4, DAY 32): 738 mm^3
tumor volume (mm^3 ± SEM) ([1]; Table 23, 0.3 mg/kg i.v. Q4d×4, DAY 35): 821 mm^3
tumor volume (mm^3 ± SEM) ([1]; Table 23, 0.3 mg/kg i.v. Q4d×4, DAY 39): 864 mm^3
tumor volume (mm^3 ± SEM) ([1]; Table 23, 0.3 mg/kg i.v. Q4d×4, DAY 42): 997 mm^3
tumor volume (mm^3 ± SEM) ([1]; Table 23, 1 mg/kg i.v. Q4d×4, DAY 0): 347 mm^3
tumor volume (mm^3 ± SEM) ([1]; Table 23, 1 mg/kg i.v. Q4d×4, DAY 4): 410 mm^3
tumor volume (mm^3 ± SEM) ([1]; Table 23, 1 mg/kg i.v. Q4d×4, DAY 7): 383 mm^3
tumor volume (mm^3 ± SEM) ([1]; Table 23, 1 mg/kg i.v. Q4d×4, DAY 11): 373 mm^3
tumor volume (mm^3 ± SEM) ([1]; Table 23, 1 mg/kg i.v. Q4d×4, DAY 14): 350 mm^3
tumor volume (mm^3 ± SEM) ([1]; Table 23, 1 mg/kg i.v. Q4d×4, DAY 18): 296 mm^3
tumor volume (mm^3 ± SEM) ([1]; Table 23, 1 mg/kg i.v. Q4d×4, DAY 21): 260 mm^3
tumor volume (mm^3 ± SEM) ([1]; Table 23, 1 mg/kg i.v. Q4d×4, DAY 26): 267 mm^3
tumor volume (mm^3 ± SEM) ([1]; Table 23, 1 mg/kg i.v. Q4d×4, DAY 29): 261 mm^3
tumor volume (mm^3 ± SEM) ([1]; Table 23, 1 mg/kg i.v. Q4d×4, DAY 32): 264 mm^3
tumor volume (mm^3 ± SEM) ([1]; Table 23, 1 mg/kg i.v. Q4d×4, DAY 35): 326 mm^3
tumor volume (mm^3 ± SEM) ([1]; Table 23, 1 mg/kg i.v. Q4d×4, DAY 39): 324 mm^3
tumor volume (mm^3 ± SEM) ([1]; Table 23, 1 mg/kg i.v. Q4d×4, DAY 42): 381 mm^3
tumor volume (mm^3 ± SEM) ([1]; Table 23, 1 mg/kg i.v. Q4d×4, DAY 47): 442 mm^3
tumor volume (mm^3 ± SEM) ([1]; Table 23, 1 mg/kg i.v. Q4d×4, DAY 50): 484 mm^3
tumor volume (mm^3 ± SEM) ([1]; Table 23, 1 mg/kg i.v. Q4d×4, DAY 53): 452 mm^3
tumor volume (mm^3 ± SEM) ([1]; Table 23, 1 mg/kg i.v. Q4d×4, DAY 56): 535 mm^3
tumor volume (mm^3 ± SEM) ([1]; Table 23, 1 mg/kg i.v. Q4d×4, DAY 60): 603 mm^3
tumor volume (mm^3 ± SEM) ([1]; Table 23, 3 mg/kg i.v. Q4d×4, DAY 0): 347 mm^3
tumor volume (mm^3 ± SEM) ([1]; Table 23, 3 mg/kg i.v. Q4d×4, DAY 4): 444 mm^3
tumor volume (mm^3 ± SEM) ([1]; Table 23, 3 mg/kg i.v. Q4d×4, DAY 7): 338 mm^3
tumor volume (mm^3 ± SEM) ([1]; Table 23, 3 mg/kg i.v. Q4d×4, DAY 11): 277 mm^3
tumor volume (mm^3 ± SEM) ([1]; Table 23, 3 mg/kg i.v. Q4d×4, DAY 14): 181 mm^3
tumor volume (mm^3 ± SEM) ([1]; Table 23, 3 mg/kg i.v. Q4d×4, DAY 18): 90 mm^3
tumor volume (mm^3 ± SEM) ([1]; Table 23, 3 mg/kg i.v. Q4d×4, DAY 21): 60 mm^3
tumor volume (mm^3 ± SEM) ([1]; Table 23, 3 mg/kg i.v. Q4d×4, DAY 26): 16 mm^3
tumor volume (mm^3 ± SEM) ([1]; Table 23, 3 mg/kg i.v. Q4d×4, DAY 29): 8 mm^3
tumor volume (mm^3 ± SEM) ([1]; Table 23, 3 mg/kg i.v. Q4d×4, DAY 32): 7 mm^3
tumor volume (mm^3 ± SEM) ([1]; Table 23, 3 mg/kg i.v. Q4d×4, DAY 35): 0 mm^3
tumor volume (mm^3 ± SEM) ([1]; Table 23, 3 mg/kg i.v. Q4d×4, DAY 39): 0 mm^3
tumor volume (mm^3 ± SEM) ([1]; Table 23, 3 mg/kg i.v. Q4d×4, DAY 42): 0 mm^3
tumor volume (mm^3 ± SEM) ([1]; Table 23, 3 mg/kg i.v. Q4d×4, DAY 47): 0 mm^3
tumor volume (mm^3 ± SEM) ([1]; Table 23, 3 mg/kg i.v. Q4d×4, DAY 50): 0 mm^3
tumor volume (mm^3 ± SEM) ([1]; Table 23, 3 mg/kg i.v. Q4d×4, DAY 53): 0 mm^3
tumor volume (mm^3 ± SEM) ([1]; Table 23, 3 mg/kg i.v. Q4d×4, DAY 56): 0 mm^3
tumor volume (mm^3 ± SEM) ([1]; Table 23, 3 mg/kg i.v. Q4d×4, DAY 60): 0 mm^3
tumor volume (mm^3 ± SEM) ([1]; Table 23, 3 mg/kg i.v. Q4d×4, DAY 63): 0 mm^3
tumor volume (mm^3 ± SEM) ([1]; Table 23, 3 mg/kg i.v. Q4d×4, DAY 67): 0 mm^3
tumor volume (mm^3 ± SEM) ([1]; Table 23, 3 mg/kg i.v. Q4d×4, DAY 70): 0 mm^3
tumor volume (mm^3 ± SEM) ([1]; Table 23, 3 mg/kg i.v. Q4d×4, DAY 76): 0 mm^3
tumor volume (mm^3 ± SEM) ([1]; Table 23, 3 mg/kg i.v. Q4d×4, DAY 83): 0 mm^3
tumor volume (mm^3 ± SEM) ([1]; Table 23, 3 mg/kg i.v. Q4d×4, DAY 90): 0 mm^3
tumor volume (mm^3 ± SEM) ([1]; Table 23, 3 mg/kg i.v. Q4d×4, DAY 97): 0 mm^3
tumor volume (mm^3 ± SEM) ([1]; Table 23, 3 mg/kg i.v. Q4d×4, DAY 103): 0 mm^3
tumor volume (mm^3 ± SEM) ([1]; Table 23, 3 mg/kg i.v. Q4d×4, DAY 110): 0 mm^3
tumor volume (mm^3 ± SEM) ([1]; Table 23, 3 mg/kg i.v. Q4d×4, DAY 118): 0 mm^3
tumor volume (mm^3 ± SEM) ([1]; Table 23, 3 mg/kg i.v. Q4d×4, DAY 125): 0 mm^3
IC50 (ng Ab/mL) ± S.E.M., HCC2429 Control siRNA ([2]; Control siRNA): 956 ± 259 ng Ab/mL
IC50 (ng Ab/mL) ± S.E.M., HCC2429 Notch3 siRNA ([2]; Notch3 siRNA knockdown): 8972 ± 891 ng Ab/mL
IC50 (ng Ab/mL) ± S.E.M., OVCAR3 Control siRNA ([3]; Control siRNA): 1056 ± 158 ng Ab/mL
IC50 (ng Ab/mL) ± S.E.M., OVCAR3 Notch3 siRNA ([3]; Notch3 siRNA knockdown): 2408 ± 27.5 ng Ab/mL
